The values below come from patent publication US20100239652A1, “IMMUNOLIPOSOMES FOR TREATMENT OF CANCER” (UNIVERSITATSSPITAL BASEL, priority 2008, published 2010).

In data set [1] the test system is EGFR-overexpressing solid tumors. Put plainly: Phase I study CC1 of C225-ILs-dox, dose escalation. Format: in vivo, human.
The subject of the next data set is HT-29 RDB. Put plainly: Cytotoxicity study, MTT staining. Format: cell-based, human. The protocol: (§1) Specific cytotoxicity of EGFR-targeted immunoliposomes containing doxorubicin was evaluated in target cells plated at a density of 8,000 cells per well in 96-well plates and allowed to grow overnight. Immunoliposomes or control treatments were applied for 2 h at 37° C., followed by washing with PBS and re-adding growth media. Cells were further incubated at 37 DC for 3 days and analyzed for cell viability using 3-(4,5-dimethylthiazol-2-yl)-2,5-diphenyl tetrazolium bromide (MTT) staining (41). For the cytotoxicity studies using the efflux pump inhibitor verapamil, this compound was added to the media at a concentration of 100 μM during the complete experiment.

The next data set concerns HT-29 WT. Put plainly: Cytotoxicity study, MTT staining. Format: cell-based, human. To be noted: Table 2. The protocol:
as §1

In a further data set the test system is MDA-MB-231 Vb100. Put plainly: Cytotoxicity study, MTT staining. In kind it is cell-based, human. To be noted: highly drug resistant cell line. As for the experimental part:
as §1

A further data set concerns MCF-7 cells. Put plainly: Cytotoxicity study, MTT staining. The settings on record: cells lack the EGF receptor, negative control; data not shown. In kind it is cell-based. As for the experimental part: as §1
Data set [2] relates to MDA-MB-231 wild type xenograft. Put plainly: Tumor xenograft model, wild type. Format: in vivo. The protocol:
(§2) Efficacy for non-targeted liposomes versus anti-EGFR immunoliposomes were studied in the MDA-MB-231 wild type and resistant breast cancer xenograft tumor model. Swiss nu/nu mice (5-6 weeks; Charles River, France) were injected subcutaneously (s.c.) with EGFR-overexpressing MDA-MB-231 tumor cells (1×10^7 cells, wild type or resistant) into the back of the animal. […] Free drug was injected on the same schedule as liposomes or immunoliposomes intravenously at their MTD of 30 mg dox/kg for doxorubicin. In control groups, saline was administered intravenously at the same injection volume and schedule.
(§3) Tumor growth was monitored for a period of 55-100 days post tumor implantation. Mice were weighted and examined for toxicity three times a week. Tumor measurements were performed 2-3 times weekly using a caliper, and tumor volumes were calculated using the equation: (length × width^2)/2.
In the wild-type MDA-MB-231 xenograft model lacking mdr features, anti-EGFR immunoliposome-dox was administered i.v. at a total dose of 30 mg dox/kg divided into three weekly doses of 10 mg/kg. […] Control treatments included: saline; free doxorubicin and non-targeted liposomal doxorubicin (commercial pegylated liposomal doxorubicin; PLD) at the same dose and schedule as immunoliposomes.
In addition, a multivariate (rank) test was performed based on the sums of ranks for each mouse. […]

In data set [3] the test system is MDA-MB-231 Vb100 xenograft. Briefly: Tumor xenograft model, multi-drug resistant. In kind it is in vivo. To be noted: i.v. 10 mg doxorubicin/kg once weekly for 3 weeks, total 30 mg dox/kg; compared to saline. The protocol:
as §2, §3
Comparators included saline, free doxorubicin and non-targeted liposomal doxorubicin (commercial pegylated liposomal doxorubicin; PLD) at the same dose and schedule as immunoliposomes.
In addition, a multivariate (rank) test was performed based on the sums of ranks for each mouse. Tumor size at each time point after last treatment was ranked across all mice for that day and the ranks were summed. The sum of the ranks was compared in each case for two treatments by a 2-sample t-test (42).

Regarding C225-ILs-dox, the “Grade ¾ Toxicity” value in data set [1] (5 mg per m2 (as doxorubicin), r7 Pat.1 prostate 2 cycles, r8 Pat.2 pancreatic 2 cycles, r9 Pat.3 renal cell 2 cycles) was “none”; in data set [1] (10 mg per m2, r10 Pat.4 pancreatic 1 cycle, r11 Pat.5 esophageal 3 cycles, r12 Pat.6 colorectal 6 cycles) it was “none”; in data set [1] (20 mg per m2, r13 Pat.7 colorectal 2 cycles, r14 Pat.8 pancreatic 1 cycle, r15 Pat.9 head and neck 4 cycles), “none”; in data set [1] (30 mg per m2, r17 Pat.10 mesothelioma 6 cycles, r18 Pat.11 prostate 2 cycles, r19 Pat.12 pancreatic 2 cycles), “none”; in data set [1] (40 mg per m2, r20 Pat.13 bladder 2 cycles, r21 Pat.14 bladder 6 cycles, r22 Pat.15 renal cell 1 cycle), “none”; in data set [1] (50 mg per m2, r23 Pat.16 hepatocellular 2 cycles, cell wraps: Neutropenia Grade 3 (r23-r24)) it was “Neutropenia”. The “Efficacy (best response)” value in data set [1] (40 mg per m2, r20 Pat.13 bladder, r21 Pat.14 bladder, RECIST) is “SD (MR)”. Also, the skin toxicity result in data set [1] (all 16 patients treated so far, 5-50 mg per m2) was “no skin toxicity”. In data set [1] (at even the higher doses), the palmar plantar erythema entry is given as “no palmar plantar erythema”. For the same substance, the signals of efficacy entry in data set [1] (even at the lowest dose used) is on record as “clear signals of efficacy”. In addition, the drug-related toxic effects result in data set [1] (up to a concentration of 50 mg/m^2) is “no or very little drug-related toxic effects”. In addition, the “C225-ILs-dox vs. free dox” value in the data set with HT-29 RDB (HT-29 RDB, Table 2) is reported as 19 - fold; with HT-29 WT it was 1.2 - fold. In addition, the “superiority of immunoliposomal delivery over the free drug” value with HT-29 RDB (ratio of IC50) was determined as 19 fold. Moreover, the “greater cytotoxicity than free dox” value in the data set with MDA-MB-231 Vb100 was 216 fold. For the same substance, the “effects (cytotoxicity)” value in the data set with MCF-7 cells was “no effects”. The “tumor regrowth during follow-up” value in data set [2] (after day 77 until end of observation (day 100)) was “did not show growth activity”. For the same substance, the “antitumor effect (tumor growth)” value in data set [2] (i.v. 10 mg doxorubicin/kg once weekly for 3 weeks, total 30 mg dox/kg, compared to saline) is recorded as “substantial tumor regressions”; in data set [3] it was “substantial tumor regressions”.
